Test: xn = mol fraction of the nth substance listed
Settings: 100 kPa, Liquid; for speed of sound: Pulse-echo method; for mass density: Vibrating tube method

OCCOCCOCCOCCO [tetraethylene glycol] + O
Settings | mass density [kg/m3] | speed of sound [m/s]
293.15 K, x1 = 0.0116 | 1015.75 | –
293.15 K, x1 = 0.0203 | 1027.07 | –
293.15 K, x1 = 0.0406 | 1049.08 | –
293.15 K, x1 = 0.0605 | 1065.39 | –
293.15 K, x1 = 0.0806 | 1077.8 | –
293.15 K, x1 = 0.1024 | 1087.94 | –
293.15 K, x1 = 0.1511 | 1102.17 | –
293.15 K, x1 = 0.2006 | 1109.91 | –
293.15 K, x1 = 0.25 | 1114.32 | –
293.15 K, x1 = 0.3012 | 1117.1 | –
293.15 K, x1 = 0.4024 | 1120.07 | –
293.15 K, x1 = 0.4964 | 1121.5 | –
293.15 K, x1 = 0.5985 | 1122.41 | –
293.15 K, x1 = 0.6122 | – | 1639.6
293.15 K, x1 = 0.7018 | 1122.98 | –
293.15 K, x1 = 0.7276 | – | 1628.3
293.15 K, x1 = 0.759 | 1123.21 | –
293.15 K, x1 = 0.8201 | 1123.39 | –
293.15 K, x1 = 0.8253 | – | 1621.8
293.15 K, x1 = 0.8353 | 1123.43 | –
293.15 K, x1 = 0.8804 | 1123.55 | –
293.15 K, x1 = 0.9044 | – | 1618.7
293.15 K, x1 = 0.9237 | 1123.66 | –
293.15 K, x1 = 0.9677 | – | 1616.8
293.15 K, x1 = 0.9719 | 1123.8 | –
293.15 K, x1 = 1 | 1123.9 | 1615.3
298.15 K, x1 = 0.0003 | – | 1498.5
298.15 K, x1 = 0.0008 | – | 1501.4
298.15 K, x1 = 0.0017 | – | 1506.5
298.15 K, x1 = 0.0033 | – | 1515.1
298.15 K, x1 = 0.0051 | – | 1524.8
298.15 K, x1 = 0.0074 | – | 1536.8
298.15 K, x1 = 0.0104 | – | 1551.5
298.15 K, x1 = 0.0116 | 1014.3 | –
298.15 K, x1 = 0.0142 | – | 1568.8
298.15 K, x1 = 0.0186 | – | 1587.5
298.15 K, x1 = 0.0203 | 1025.37 | –
298.15 K, x1 = 0.0239 | – | 1608
298.15 K, x1 = 0.0284 | – | 1623.9
298.15 K, x1 = 0.0324 | – | 1636.7
298.15 K, x1 = 0.0383 | – | 1653.7
298.15 K, x1 = 0.0406 | 1046.75 | –
298.15 K, x1 = 0.0442 | – | 1668.6
298.15 K, x1 = 0.0498 | – | 1680.9
298.15 K, x1 = 0.0553 | – | 1691.6
298.15 K, x1 = 0.0605 | 1062.57 | –
298.15 K, x1 = 0.0653 | – | 1707.4
298.15 K, x1 = 0.0726 | – | 1716.5
298.15 K, x1 = 0.0798 | – | 1723.8
298.15 K, x1 = 0.0806 | 1074.61 | –
298.15 K, x1 = 0.0829 | – | 1726.4
298.15 K, x1 = 0.0895 | – | 1731.1
298.15 K, x1 = 0.0901 | – | 1731.5
298.15 K, x1 = 0.0991 | – | 1736
298.15 K, x1 = 0.1005 | – | 1736.6
298.15 K, x1 = 0.1024 | 1084.47 | –
298.15 K, x1 = 0.1092 | – | 1739.2
298.15 K, x1 = 0.1121 | – | 1739.8
298.15 K, x1 = 0.1182 | – | 1740.6
298.15 K, x1 = 0.1266 | – | 1740.9
298.15 K, x1 = 0.1376 | – | 1740
298.15 K, x1 = 0.1498 | – | 1737.9
298.15 K, x1 = 0.1511 | 1098.43 | –
298.15 K, x1 = 0.1606 | – | 1735.2
298.15 K, x1 = 0.1728 | – | 1731.4
298.15 K, x1 = 0.186 | – | 1726.8
298.15 K, x1 = 0.2006 | 1106.1 | –
298.15 K, x1 = 0.2067 | – | 1719.1
298.15 K, x1 = 0.2378 | – | 1707.1
298.15 K, x1 = 0.25 | 1110.48 | –
298.15 K, x1 = 0.2631 | – | 1697.8
298.15 K, x1 = 0.3012 | 1113.23 | –
298.15 K, x1 = 0.3049 | – | 1683.8
298.15 K, x1 = 0.3449 | – | 1672.2
298.15 K, x1 = 0.4024 | 1116.15 | –
298.15 K, x1 = 0.4055 | – | 1657.7
298.15 K, x1 = 0.485 | – | 1642.7
298.15 K, x1 = 0.4964 | 1117.56 | –
298.15 K, x1 = 0.5922 | – | 1627
298.15 K, x1 = 0.5985 | 1118.47 | –
298.15 K, x1 = 0.7004 | – | 1614.8
298.15 K, x1 = 0.7018 | 1119.05 | –
298.15 K, x1 = 0.759 | 1119.26 | –
298.15 K, x1 = 0.8201 | 1119.44 | –
298.15 K, x1 = 0.8265 | – | 1605.7
298.15 K, x1 = 0.8353 | 1119.48 | –
298.15 K, x1 = 0.8804 | 1119.58 | –
298.15 K, x1 = 0.9098 | – | 1602.7
298.15 K, x1 = 0.9237 | 1119.68 | –
298.15 K, x1 = 0.9665 | – | 1600.8
298.15 K, x1 = 0.9719 | 1119.82 | –
298.15 K, x1 = 1 | 1119.92 | 1599.1
303.15 K, x1 = 0.0003 | – | 1511.2
303.15 K, x1 = 0.0011 | – | 1515.2
303.15 K, x1 = 0.0027 | – | 1523.7
303.15 K, x1 = 0.0048 | – | 1535
303.15 K, x1 = 0.0078 | – | 1549.5
303.15 K, x1 = 0.011 | – | 1564.3
303.15 K, x1 = 0.0116 | 1012.58 | –
303.15 K, x1 = 0.0142 | – | 1577.9
303.15 K, x1 = 0.0174 | – | 1590.9
303.15 K, x1 = 0.0203 | 1023.4 | –
303.15 K, x1 = 0.0215 | – | 1605.9
303.15 K, x1 = 0.0264 | – | 1622.5
303.15 K, x1 = 0.0325 | – | 1640.8
303.15 K, x1 = 0.0385 | – | 1656.3
303.15 K, x1 = 0.0406 | 1044.25 | –
303.15 K, x1 = 0.0438 | – | 1668.2
303.15 K, x1 = 0.0496 | – | 1679.6
303.15 K, x1 = 0.0549 | – | 1688.7
303.15 K, x1 = 0.0605 | 1059.64 | –
303.15 K, x1 = 0.0609 | – | 1697.5
303.15 K, x1 = 0.067 | – | 1705
303.15 K, x1 = 0.0765 | – | 1714.2
303.15 K, x1 = 0.0806 | 1071.38 | –
303.15 K, x1 = 0.0831 | – | 1719
303.15 K, x1 = 0.0852 | – | 1720.3
303.15 K, x1 = 0.0883 | – | 1722
303.15 K, x1 = 0.0911 | – | 1723.4
303.15 K, x1 = 0.0971 | – | 1725.8
303.15 K, x1 = 0.0993 | – | 1726.5
303.15 K, x1 = 0.1024 | 1081.01 | –
303.15 K, x1 = 0.104 | – | 1727.7
303.15 K, x1 = 0.1106 | – | 1728.8
303.15 K, x1 = 0.1136 | – | 1729
303.15 K, x1 = 0.1203 | – | 1729.3
303.15 K, x1 = 0.1252 | – | 1729.1
303.15 K, x1 = 0.1427 | – | 1726.6
303.15 K, x1 = 0.1511 | 1094.7 | –
303.15 K, x1 = 0.1568 | – | 1723.1
303.15 K, x1 = 0.1769 | – | 1716.7
303.15 K, x1 = 0.1966 | – | 1709.4
303.15 K, x1 = 0.2006 | 1102.25 | –
303.15 K, x1 = 0.2222 | – | 1699.5
303.15 K, x1 = 0.25 | 1106.58 | –
303.15 K, x1 = 0.261 | – | 1684.7
303.15 K, x1 = 0.2948 | – | 1673
303.15 K, x1 = 0.3012 | 1109.3 | –
303.15 K, x1 = 0.346 | – | 1657.6
303.15 K, x1 = 0.4153 | – | 1640.9
303.15 K, x1 = 0.4781 | – | 1629
303.15 K, x1 = 0.5805 | – | 1613.5
303.15 K, x1 = 0.6796 | – | 1601.8
303.15 K, x1 = 0.7959 | – | 1591.9
303.15 K, x1 = 0.92 | – | 1586.7
303.15 K, x1 = 0.9652 | – | 1585
303.15 K, x1 = 1 | – | 1582.9

From the NIST ThermoML archive (doi:10.1016/j.jct.2015.02.007)
